From ChEMBL document CHEMBL1132531, “From histamine to imidazolylalkyl-sulfonamides: the design of a novel series of histamine H3-receptor antagonists” (Bioorg Med Chem Lett, 1999)

Sequences of proteins named here, by UniProt entry; tags and fusion partners are left off. A change or cut given only in a name is not applied to a line headed by its entry.
UniProt Q9JI35: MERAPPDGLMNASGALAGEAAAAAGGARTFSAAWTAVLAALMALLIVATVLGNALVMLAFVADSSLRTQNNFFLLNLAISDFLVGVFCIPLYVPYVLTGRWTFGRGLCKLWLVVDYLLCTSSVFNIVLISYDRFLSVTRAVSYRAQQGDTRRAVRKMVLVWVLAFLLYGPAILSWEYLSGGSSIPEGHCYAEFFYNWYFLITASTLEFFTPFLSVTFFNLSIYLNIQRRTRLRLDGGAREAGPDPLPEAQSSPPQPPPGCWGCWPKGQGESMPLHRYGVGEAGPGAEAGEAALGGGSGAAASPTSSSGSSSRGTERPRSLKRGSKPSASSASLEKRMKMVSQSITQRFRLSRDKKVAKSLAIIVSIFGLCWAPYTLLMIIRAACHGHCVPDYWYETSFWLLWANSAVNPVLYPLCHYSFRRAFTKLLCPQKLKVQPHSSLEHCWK

Target: Histamine H3 receptor (Cavia porcellus, UniProt Q9JI35)
Assay: Binding affinity towards histamine H3 receptor using [3H](R)-alpha-methylhistamine as radioligand in guinea pig cortical homogenates

- Ki: 1860 nM
SMILES: O=S(=O)(Cc1ccccc1)NCCc1c[nH]cn1
